In patent US20260217701A1, “SELECTIVE BET INHIBITORS AND USES THEREOF” (Tay Therapeutics Limited, priority 2022, published 2026):
pIC50: −log10 of the molar value.

Key:
[1] = target: BRD4 BD1 (Homo sapiens, UniProt O60885); test: NanoBRET bromodomain assay, NanoLuc-BRD4-BD1 in HEK293 cells; conditions: read-out: BRD4 BD1 IC50, 2 hours, IC50 rounded to nearest integer for banding
[2] = target: BRD4 BD2 (Homo sapiens, UniProt O60885); test: NanoBRET bromodomain assay, NanoLuc-BRD4-BD2 in HEK293 cells; type: binding

pIC50 [1]: < 6.00
Fold Selectivity BRD4 BD1/BD2 ([2]; IC50 BD1/IC50 BD2, qualitative if an IC50 is at the upper limit): x (Fold >2 and ≤50)
pIC50 ([2]; read-out: BRD4 BD2 IC50, NanoBRET, HEK293 cells, 2 hours, IC50 rounded to nearest integer for banding): 6.00 to 6.70
SMILES: Cn1cc(-c2cccnc2)c(-c2cn(C)c(=O)c3[nH]c(-c4cnn(C(F)(F)F)c4)c(Cl)c23)cc1=O
